Yeast mating assay B: variants of the scFv Ab-14

Values reported by Li et al. 2023, doi:10.1038/s41467-023-39022-2 (FLAb copy).

Antigen: PDVDLGDISGINAS, a 14-residue peptide of the SARS-CoV-2 spike HR2 region.

Each scFv is VH, a 15-residue (Gly4Ser)3 linker, VL, as in the parent Ab-14, and differs from it in the CDRs of the light chain only.
VH: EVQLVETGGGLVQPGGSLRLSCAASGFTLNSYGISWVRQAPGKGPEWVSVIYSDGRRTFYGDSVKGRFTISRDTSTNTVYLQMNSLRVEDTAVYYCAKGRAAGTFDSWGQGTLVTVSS
VL: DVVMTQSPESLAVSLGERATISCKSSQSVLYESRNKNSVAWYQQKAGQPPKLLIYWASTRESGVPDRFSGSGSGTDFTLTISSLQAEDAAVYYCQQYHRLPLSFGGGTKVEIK

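The starting antibody came from a phage panning campaign against this peptide. The variants were designed computationally from a first round of random CDR variants and then made and measured. Group labels follow the data file (En: ensemble of fine-tuned language models; GP: Gaussian process model; HC: hill climbing; Gen: genetic algorithm; Gibbs: Gibbs sampling; a sequence that several methods proposed may carry one label only). The assay is AlphaSeq: two haploid yeast populations carry antibody and antigen on their surface. Binding brings cells together so that they mate, and sequencing counts the barcode pairs among the diploids. A regression on co-assayed BCL2-family reference pairs converts the normalised counts of each replicate to an apparent Kd. Mating was done six times.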

Variants are written as CDR1, CDR2 and CDR3 of the light chain (limits as in the source). Parent: KSSQSVLYESRNKNSVA, WASTRES, QQYHRLPLS. Variants here have more than six changes. Kd is apparent (estimated from mating counts) and averaged on the log scale over replicates with a signal. Smaller is tighter. An entry "no signal" has no value in the source: the pair was not observed among the diploids in any replicate. This suggests poor binding but is not conclusive. Empty control strains, which show no peptide, gave a signal in 4% of pairings with all light chain designs; the median was 430 nM and 95% of these signals were weaker than 38 nM. No background was subtracted. The authors' rule: three or more of the six replicates give a measured affinity, fewer mean a poor binder. The range of this assay differs from that of the first round, and the authors advise against merging the two. Of ten entries with the parent sequence, four were seen in most replicates (averages 2.2 nM to 240 nM), three in one and three in none, so single entries are noisy.

With KIGAHLNTLMHTKNNVA | DLVTREQ | QQYHRLPLS [En_Gen] the result was 11 nM (6 of 6 replicates). Variant KIGMYFGLLTRQANSIA | DNQTRED | QQYNRLPLS [En_Gen] gave 1.3 µM (4 of 6 replicates). Variant SLHLYTLTEENNNNSIA | EKSYRAY | QQYSHLPLV [En_Gibbs] gave 170 nM (1 of 6 replicates). With AISEHAFYGQRDENAIA | GADVRAK | QQYWRLPLT [En_Gibbs] the result was 3.1 nM (6 of 6 replicates). For KLRQVTGYESFNKNSVA | QTSTRES | QDYDRLPLS [En_HC], the assay gave 310 nM (3 of 6 replicates). For TIDLYTSYGNGENRAIA | DVSIKDY | QQYARLPLL [En_Gibbs], the assay gave 6.0 nM (6 of 6 replicates). Variant TLFEGRSYWDGDERNIA | DARMRED | QDYARLPLV [En_Gibbs] gave 36 nM (5 of 6 replicates).

With ALSQSMDMTSRNINSVA | DLTTREN | QQYHRLPLS [En_HC] the result was 1.6 nM (6 of 6 replicates). Variant FITYQQDQTGLQRNAIA | QVNLKEY | QQYGRLPFA [En_Gibbs] gave 150 nM (1 of 6 replicates). Variant TISQMSTLFSQSINNVA | EVSERLN | QQYDRLPLS [En_Gen] showed 13 nM (6 of 6 replicates). With KLREVQHVEIKQKNNVA | DNDTRES | QDYYRLPLS [En_HC] the result was 850 nM (1 of 6 replicates). For RFSQTEQMGIRDYNSVA | NGSTVNT | QHYSRLPIS [En_Gibbs], the assay gave 9.2 nM (6 of 6 replicates). Variant KLGQMVLTGSYVKNSVA | QSSTREN | QQYHRLPLS [En_HC] showed 14 nM (3 of 6 replicates). Variant KLSQVTNSEHKVKNSIA | EMVTREK | QQYDRLPLE [En_HC] showed 9.5 nM (6 of 6 replicates).

With KLSQEMLYESRMINSVA | NASQREV | QQYHRLPLS [GP_Gibbs] the result was 1.3 nM (6 of 6 replicates). With TISQITSLFSQTINNVA | EVTTREE | QQYDRLPLA [En_Gen] the result was 13 nM (6 of 6 replicates). With KLRMLTHIESFNKNNVA | EMTTRES | QSYDRLPLS [En_HC] the result was 1.2 nM (6 of 6 replicates). For SMSNAHFNPDNWKNSIA | DAEHVAY | QQYSRLPIT [En_Gibbs], the assay gave 2.2 nM (6 of 6 replicates). With KLRLHNLDFYEQENSIA | GVSNRAY | QQYYRLPLN [En_Gibbs] the result was 41 nM (6 of 6 replicates). For KMSMSVLYEDRHQNSVA | NASTRFM | QQYHRLPLS [GP_Gibbs], the assay gave 5.6 nM (6 of 6 replicates). Variant KIEQLVFPYGPSWHSIA | NAETLLA | QQYYMLPLM [En_Gibbs] showed 6.2 nM (6 of 6 replicates).

Variant MMSQVTGMGQRHRNNVA | QTSTREP | QQYDHLPLI [En_Gen] gave 8.8 nM (6 of 6 replicates). Variant KLPQSDLYEGRNSNSVA | NGSTRFS | QQYHRLPLS [GP_Gibbs] showed 1.9 nM (6 of 6 replicates). Variant SLRMKELGMSYNANNVA | DSENRIK | QQYYRLPLM [En_Gibbs] gave 19 nM (6 of 6 replicates). For TISQMFMMENQFKNSVA | QASTRES | QCYDRLPLS [En_HC], the assay gave 190 nM (5 of 6 replicates). With KVSIFMLTMDNANSHIA | NMAEERT | QQYQRLPLS [En_Gibbs] the result was no signal (0 of 6 replicates). Variant TLYGLSNSMSKNKNSVA | EMTTREK | QQYDRLPLF [En_Gen] gave 66 nM (6 of 6 replicates). With RMDMALPHAHNNVNSIA | EGAIVAD | QQYDRLPLW [En_Gibbs] the result was 35 nM (6 of 6 replicates).

Variant RVSSMLMAGGIIYNNIA | NTKVLER | QQYMRLPLM [En_Gibbs] gave 14 nM (2 of 6 replicates). Variant TISQSTQQESHNKNSVA | DLNVRGS | QQYDRLPLS [En_HC] gave 2.8 nM (6 of 6 replicates). With KISMLTRFQQNAKNNIA | EMNRREQ | QQYHRLPLS [En_HC] the result was 2.5 nM (6 of 6 replicates).

A selection of 5 entries from above:

{"CDR-L1": "TISQMSTLFSQSINNVA", "CDR-L2": "EVSERLN", "CDR-L3": "QQYDRLPLS", "group": "En_Gen", "Kd (apparent)": "13 nM", "detected": "6/6"}
{"CDR-L1": "KLREVQHVEIKQKNNVA", "CDR-L2": "DNDTRES", "CDR-L3": "QDYYRLPLS", "group": "En_HC", "Kd (apparent)": "850 nM", "detected": "1/6"}
{"CDR-L1": "TISQSTQQESHNKNSVA", "CDR-L2": "DLNVRGS", "CDR-L3": "QQYDRLPLS", "group": "En_HC", "Kd (apparent)": "2.8 nM", "detected": "6/6"}
{"CDR-L1": "KIGMYFGLLTRQANSIA", "CDR-L2": "DNQTRED", "CDR-L3": "QQYNRLPLS", "group": "En_Gen", "Kd (apparent)": "1.3 µM", "detected": "4/6"}
{"CDR-L1": "ALSQSMDMTSRNINSVA", "CDR-L2": "DLTTREN", "CDR-L3": "QQYHRLPLS", "group": "En_HC", "Kd (apparent)": "1.6 nM", "detected": "6/6"}